Measurements: patent US9695481B2, “Polynucleotides comprising a reporter sequence operatively linked to a regulatory element” (UNIVERSITEIT LEIDEN, priority 2010, dated 2017)

Tests used:
[1] = tested on: mouse ES cell lines containing a DsRed fluorescent reporter; conditions: cited from earlier work
[2] = tested on: Bscl2-GFP and Srxn1-GFP mES reporter cells
[3] = cited from earlier work

Row | Substance | mES DsRed reporters [1] | Bscl2-GFP/Srxn1-GFP GFP Induction [2] | In vivo genotoxicity [3]
1 | Tert-butyl alcohol | Neg. | Neg. | Neg.
2 | n-butyl chloride | – | Neg. | –
